Measured values published in PubChem BioAssay AID623870 (Broad Institute, 2012).
This is a selection; strong and weak results do not stand in their true shares. Calls of active or inactive are those of the source.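 Rule for the calls: active = mean inhibition of replicates at least 50% and at least half of replicates each reaching 50%; inconclusive = half or more replicates reach 50% but mean below 50%; inactive = the rest.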

Each compound was assayed against Transforming acidic coiled-coil-containing protein 3 (Homo sapiens) (UniProt Q9Y6A5) (assay: inhibitors of ARNT PAS-B binding to TACC3 – biochemical, AlphaScreen, single concentration, primary screen (AID 623870;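 note: 0% = complete ARNT plus TACC3 wells and 100% = ARNT alone without TACC3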)). Details: AlphaScreen His-ARNT PAS-B/GST-TACC3 binding, luminescence; at 9.99 µM; active compounds read high; TACC3 fragment carries E629A point mutation.

| SMILES | inhibition |
| --- | --- |
| COc1ccc(N)c([N+](=O)[O-])c1[N+](=O)[O-] | inactive: -1.66% |
| O=P(Nc1ccccn1)(c1ccc(Br)cc1)c1ccc(Br)cc1 | inactive: 0.886% |
| CN(C)C1(CNC(=O)c2ccc(Cl)c(S(N)(=O)=O)c2)CCCCC1 | inactive: -6.25% |
| O=P(Nc1nc2ccccc2s1)(c1ccccc1)c1ccccc1 | inactive: -10.2% |
| C[C@H]1OP(=O)(Oc2ccccc2)[C@H](O)[C@H](O)[C@H]1N=[N+]=[N-] (stereo not given in full) | inactive: -7.34% |
| O=[N+]([O-])c1ccc(O)c(/C=N/Nc2ccc([N+](=O)[O-])cc2[N+](=O)[O-])c1 | inactive: -2.76% |
| CC(=O)NC(SC(=S)N(C)C)C(Cl)(Cl)Cl (stereo not given) | inactive: 7.11% |
| O=[N+]([O-])c1ncn(CCn2cnc([N+](=O)[O-])n2)n1 | inactive: -32.2% |
| O=[As](O)(c1ccccc1)c1ccc(O)cc1 | inactive: -0.875% |
| Nc1ccc([As](=O)(O)c2ccc([N+](=O)[O-])cc2)cc1 | inactive: -1.12% |
| C(Cc1nn[nH]n1)Cc1nn[nH]n1 | inactive: -5% |
| O=C(OC1CN2CCC1CC2)c1cccc(Cl)c1 (stereo not given) | inactive: -2.97% |
| CC(C)C(=O)NC(Sc1ccccc1)C(Cl)(Cl)Cl (stereo not given) | inactive: -0.038% |
| O=P(Nc1nccs1)(c1ccccc1)c1ccccc1 | inactive: 1.19% |
| c1nnnn1CCn1cnnn1 | inactive: -3.09% |
| O=P1(Nc2nc3ccc(Cl)cc3s2)COc2ccccc2O1 (stereo not given) | inactive: -2.11% |
| CCOc1ccc(C2=NCC(CBr)S2)cc1 (stereo not given) | inactive: 1.5% |
| CCc1cc(O)c([N+](=O)[O-])c(C)c1[N+](=O)[O-] | inactive: -11.7% |
| CC(C)(C)C(=O)NC(Sc1ccccc1)C(Cl)(Cl)Cl (stereo not given) | inactive: 2.08% |
| N#C/C(=C\c1ccc(N(CCBr)CCBr)cc1)C(N)=O | inactive: -1.59% |
| CC(=O)c1ccc(N2CC2c2ccncc2)cc1 (stereo not given) | inactive: -1.35% |
| COC(=O)C1(C)COP(=O)(NCc2ccccc2)OC1 (stereo not given) | inactive: 2.64% |
| Cc1ccccc1CN(C)C(=O)COC(=O)C(O)(c1ccccc1)c1ccccc1 | inactive: -4.44% |
| C[C@@H]1C=CCP(=O)(Oc2ccccc2)O1 (stereo not given in full) | inactive: -2.16% |
| C[C@H]1OP(=O)(Oc2ccccc2)C[C@@H]2O[C@@H]21 (stereo not given in full) | inactive: -0.886% |

| SMILES | inhibition |
| --- | --- |
| CC(=O)Nc1ccc([As](=O)(O)O)c(O)c1 | inactive: -3.64% |
| CC(=O)Nc1ccc(Oc2c([N+](=O)[O-])cc([N+](=O)[O-])cc2[N+](=O)[O-])cc1 | inactive: 6.43% |
| CCNC(=S)/N=C(\N)N[N+](=O)[O-] | inactive: -8.76% |
| O=C(NC1CCS(=O)(=O)C1)NP(=S)(Oc1ccccc1)Oc1ccccc1 (stereo not given) | inactive: -7.73% |
| c1ccc(-c2nn[nH]n2)c(-c2nn[nH]n2)c1 | active: 66.3% |
| Cc1ccc(NP(=O)(Oc2cccc(C)c2)Oc2cccc(C)c2)nc1 | inactive: 21.8% |
| O=P1(N(CCCl)CCCl)OCCC2CCCCN21 (stereo not given) | inactive: 9.12% |
| COC(=O)c1cc2c(s1)N=C(c1ccccc1)N(C)P2(=O)N1CCOCC1 (stereo not given) | inactive: 1.92% |
| CC(=O)NC(SC(=S)N(CC(C)C)CC(C)C)C(Cl)(Cl)Cl (stereo not given) | inactive: 17.9% |
| Cc1ccc(OP(=O)(Nc2ccccn2)Oc2ccc(C)cc2)cc1 | inactive: -1.9% |
| O=C(OC1CN2CCC1CC2)c1ccccc1 (stereo not given) | inactive: -2.23% |
| CCC(=O)N1C2C3N(C(=O)CC)C1C1N(C(=O)CC)C(C(N1C(=O)CC)N3C(=O)CC)N2C(=O)CC | inactive: -0.634% |
| Cc1ccccc1OP(=O)(Nc1ccccn1)Oc1ccccc1C | inactive: -3.12% |
| CC(NC(=O)COC(=O)C(O)(c1ccccc1)c1ccccc1)c1ccccc1 (stereo not given) | inactive: -0.01% |
| CN(C)C(=O)Oc1noc2ccccc12 | inactive: -0.958% |
| O=c1c2cc([N+](=O)[O-])ccc2[nH]c2c([N+](=O)[O-])cc([N+](=O)[O-])cc12 | inactive: -13.6% |
| O=C(O)c1ccccc1[As](=O)(O)O | inactive: -9.51% |
| CC(=O)Nc1ccc([As](=O)(O)O)cc1 | inactive: -9.46% |
| CCCC1OP(N)(=O)OCC1CC (stereo not given) | inactive: -3.48% |
| O=P(Nc1nc2ccc(Cl)cc2s1)(c1ccccc1)c1ccccc1 | inactive: 10% |
| CCOP(=O)(Nc1ccccc1)OCC | inactive: -11.1% |
| Cc1cc(SC(NC(=O)c2ccc(F)cc2)C(Cl)(Cl)Cl)ncn1 (stereo not given) | inactive: -5.89% |
| Cc1ccc(NP(=O)(Oc2ccccc2F)Oc2ccccc2F)nc1 | inactive: -5.38% |
| CN(C(=O)Cc1ccc(Cl)c(Cl)c1)[C@H]1CCCC[C@@H]1N1CCCC1 | inactive: -1.85% |
| CCN(N=Nc1nonc1N)c1nonc1N | inactive: -2.94% |
